Results published in patent US20220213167A1 (published 2022).

T1: gp100, also known as premelanosome protein (PMEL) peptide on HLA-A*02:01 (human)
T1 peptide: KTWGQYWQV

B1: TCR clone 4 (TCR, V domains shown)
Valpha: GEDVEQSLFLSVREGDSSVINCTYTDSSSTYLYWYKQEPGAGLQLLTYIFSNMDMKQDQRLTVLLNKKDKHLSLRIADTQTGDSAIYFCAEIANRDDKIIFGKGTRLHILP
Vbeta: DTEVTQTPKHLVMGMTNKKSLKCEQHMGHRAMYWYKQKAKKPPELMFVYSYEKLSINESVPSRFSPECPNSSLLNLHLHALQPEDSALYLCASSQAVNTGELFFGEGSRLTVL
B2: TCR clone 5 (TCR, V domains shown)
Valpha: GEDVEQSLFLSVREGDSSVINCTYTDSSSTYLYWYKQEPGAGLQLLTYIFSNMDMKQDQRLTVLLNKKDKHLSLRIADTQTGDSAIYFCAEDTDKLIFGTGTRLQVFP
Vbeta: EAGVAQSPRYKIIEKRQSVAFWCNPISGHATLYWYQQILGQGPKLLIQFQNNGVVDDSQLPKDRFSAERLKGVDSTLKIQPAKLEDSAVYLCASSLGGGELFFGEGSRLTVL

Biological target: T1, gp100, also known as premelanosome …
Test: multimer staining

Row | Binder | binding result
1 | B1 | recognises
2 | B2 | recognises
